From PubChem
p53 reactivator: restores transcriptional activity of mutant p53; H1299 p53-A138V BP100-luciferase reporter, luminescence, 24 h; Potency, µM (titrated, usually from 92.2 µM), hits mostly activators; 320,000 compounds, 0.063% hits; AID 504706; also: nearly all actives have a fitted effect of over 45% in size
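H1299 (p53-null), stable ts p53-A138V + BP100-Luc; 1000 cells/well, Opti-MEM/10% FBS; cpd 4 pt, 1:5; 24 h, 37 deg C, 5% CO2; detection reagent 10 min RT; luminescence.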
miR-21 reporter: miR-21 reporter, rising signal | HeLa miR-21 FLuc reporter, luciferase, 48 h | Potency, µM (top dose mostly 38.3 µM) | 340,000 tested, under 10 active | AID 2288; active = well fitted rising curve with a large enough effect; inconclusive = small, poorly fitted or top-dose-only effect; inactive = no such curve, though single readings can be large or run the other way;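 further: miR-21 action dims this reporter so a rising signal means less miR-21 action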
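Luminescence from a firefly luciferase reporter carrying a miR-21 binding site downstream, stably expressed under a CMV promoter in HeLa cells that make miR-21 endogenously, reports miRNA modulation after 48 h compound exposure up to approximately 40uM final.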
Nrf2 inh: Nrf2 pathway inhibition; A549 ARE-Fluc reporter, luciferase luminescence, 18-24 h; Potency, µM (series often up to 46 µM), usual class: inhibitors; 360,000 compounds, 2.1% hits; also: nearly all actives have a fitted effect of over 60% in size
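Two sequential reads on A549 ARE_Fluc cells exposed to compound for 18-24 h: a CellTiter-Fluor fluorescence read for viability, then a luciferase luminescence read for Nrf2/ARE activity.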
Nrf2 ARE act: activators of Nrf2 (ARE) signaling. AREc32 ARE-luciferase reporter (MCF7-derived line), luminescence, 24 h. 410,000 compounds, 0.31% hits. Potency, µM (doses to about 46.1 µM), hits mostly activators; also: nearly all actives have a fitted effect of over 65% in size
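Nrf2 activation is followed as ARE-luciferase induction in the AREc32 line after one day of compound treatment; luminescence is read with Steady-Glo.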
A549 viability: counter-screen for Nrf2 inhibitors: cytotoxicity in A549 cells; 390,000 compounds, 0.16% hits; A549 ARE-Fluc cells, CellTiter-Fluor viability, 18-24 h; AID 504648; Potency, µM (highest dose often 46 µM), usual class: inhibitors
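A549 ARE-Fluc cells in 5% FBS OPTI-MEM, 5000 cells/well, rested 2 h then exposed to compounds in concentration-response for 18-24 h at 37 °C. Viability by CellTiter-Fluor fluorescence (Ex 405/Em 525) after 30 min; luciferase luminescence (BugLite, 15 min, RT) read afterwards.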
ClpP mod: qHTS Assay for Activators of ClpP; ATP-dependent Clp protease proteolytic subunit (Bacillus subtilis (strain 168)), P80244; purified B. subtilis ClpP, FRET peptide cleavage, 20 min; Potency, µM (doses to about 57.5 µM); 340,000 compounds, 1.9% hits; active = well fitted falling curve with a large enough effect; inconclusive = small, poorly fitted or top-dose-only effect; inactive = no such curve, though single readings can be large or run the other way; also: the source files actives as falling curves though it sought activators and does not explain the sign; nearly all actives have a fitted effect of over 65% in size
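Buffer: 100 mM Tris/HCl pH8, 100 mM KCl, 0.05% low protease BSA, 2.5% glycerol, 0.01% Tween-20. ClpP 10 microg/mL final; 20 min RT; delta FRET normalized to ADEP and DMSO controls.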
Large screens that a line does not name were inactive. Only some compounds are listed: those with a hit (about 3.7% of all), similar ones and a draw of the others. Unless noted, calls follow the shape of the dose curve; as a rule, active = well fitted curve in the direction sought with a large enough effect; inconclusive = small, poorly fitted or top-dose-only effect, or another doubt; inactive = no such curve, though single readings can be large; an effect the other way counts as inactive or inconclusive.

CCC1CCCCN1S(=O)(=O)c1ccc(C(=O)Nc2nnc(C3CC3)o2)cc1 (stereo not given)	Nrf2 inh inconclusive
Cn1c(=O)[nH]c(=O)c2c1nc([N+](=O)[O-])n2Cc1ccccc1	miR-21 reporter inconclusive, Nrf2 inh 23µM, Nrf2 ARE act inconclusive, A549 viability inconclusive (no result: ClpP mod)
CCCn1c(-c2cc(OC)c(OC)c(OC)c2)nc2c1c(=O)[nH]c(=O)n2Cc1ccccc1	Nrf2 inh inconclusive (no result: ClpP mod)
Cn1c(=O)[nH]c(=O)c2c1nc(Br)n2CCC(=O)c1ccccc1	ClpP mod 28µM
COc1ccc(-c2nc3c(c(=O)[nH]c(=O)n3Cc3ccccc3)n2Cc2ccccc2)cc1	Nrf2 inh 15µM, ClpP mod 28µM
COc1ccc(-c2nc3c(c(=O)[nH]c(=O)n3Cc3ccccc3)n2C)cc1	ClpP mod 35µM
Nc1ncc(-c2cccc(-c3nn4c(=O)cc(N5CCNCC5)nc4s3)c2)cn1	none (no result: p53 reactivator, miR-21 reporter, Nrf2 ARE act, ClpP mod)
COc1ccc(OC)c(S(=O)(=O)N2CCCC(C(=O)NC3CC3)C2)c1 (stereo not given)	none (no result: p53 reactivator, miR-21 reporter, ClpP mod)
Cc1cccc(OCC(=O)NCC2(N3CCN(C)CC3)CCCCC2)c1	none (no result: p53 reactivator)
CCOC(=O)N1CCc2c(sc(NCc3ccc(OC)c(Br)c3)c2C(=O)Nc2cc(OC)ccc2OC)C1	none (no result: p53 reactivator, Nrf2 inh)
COc1ccc(CCNC(=O)Cn2c(=O)n(-c3ccc(OC)c(OC)c3)c(=O)c3ccccc32)cc1OC	ClpP mod inconclusive (no result: p53 reactivator)
Cc1cccc(NC(=O)Cn2c(=O)n(CC3CCC(C(=O)NCCc4ccccc4)CC3)c(=O)c3ccccc32)c1C (stereo not given)	none (no result: p53 reactivator)
Cc1cccc(OCC(=O)OCc2cc(=O)n3nc(-c4cccs4)sc3n2)c1	none (no result: p53 reactivator)
COc1ccc2oc(C(=O)OCC(=O)NCC3CCCO3)c(C)c2c1 (stereo not given)	ClpP mod 13µM (no result: miR-21 reporter)
COc1ccc2oc(C(=O)OCC(=O)NC3CCCC3)c(C)c2c1	Nrf2 inh inconclusive
COc1ccc2oc(C(=O)OCC(=O)NC3(C#N)CCCC3)c(C)c2c1	ClpP mod 25µM (no result: miR-21 reporter)
COc1ccc2oc(C(=O)OCC(=O)Nc3ccc(NC(C)=O)cc3)c(C)c2c1	ClpP mod 25µM (no result: miR-21 reporter)
O=C(COC(=O)Cc1ccc(Br)cc1)NCC1CCCO1 (stereo not given)	none (no result: miR-21 reporter)
CCOc1ccc2oc(C(=O)OCC(=O)NCC3CCCO3)c(C)c2c1 (stereo not given)	Nrf2 inh inconclusive (no result: miR-21 reporter)
O=C(COC(=O)Cc1c(Cl)cccc1Cl)NCC1CCCO1 (stereo not given)	ClpP mod 25µM
CC1OC(c2ccccc2)OC2COC(c3ccccc3)OC12 (stereo not given)	none (no result: p53 reactivator, miR-21 reporter, ClpP mod)
CCCCCCCCCC[n+]1cccc2cc(Cl)ccc21	none (no result: p53 reactivator, miR-21 reporter, Nrf2 inh, Nrf2 ARE act, A549 viability)
CC(O)(c1ccccc1)c1ccc2ccccc2n1 (stereo not given)	none (no result: p53 reactivator, miR-21 reporter)
O=C(NCCOC(=O)c1c(F)cccc1Cl)c1c(F)cccc1Cl	none (no result: ClpP mod)
COc1ccc2oc(C(=O)OCC(=O)Nc3cc(S(=O)(=O)N4CCOCC4)ccc3OC)c(C)c2c1	ClpP mod 10µM (no result: miR-21 reporter)
COc1ccc2oc(C(=O)OCC(=O)Nc3ccc(OC)c(S(N)(=O)=O)c3)c(C)c2c1	ClpP mod 28µM (no result: miR-21 reporter)
COc1ccc2oc(C(=O)OCC(=O)Nc3cccc(S(=O)(=O)N4CCOCC4)c3)c(C)c2c1	none (no result: miR-21 reporter, ClpP mod)
COc1ccc(NC(=O)COc2ccccc2Cc2ccccc2)cc1S(N)(=O)=O	miR-21 reporter inconclusive, Nrf2 inh 13µM, A549 viability inconclusive
COc1ccc2oc(C(=O)OCC(=O)Nc3cc(S(=O)(=O)N4CCOCC4)ccc3C)c(C)c2c1	none (no result: miR-21 reporter, ClpP mod)
O=C1CCCC2=C1C1(CCSC1)N=C(Nc1nc3ccccc3o1)N2 (stereo not given)	none (no result: p53 reactivator, miR-21 reporter, Nrf2 ARE act, ClpP mod)
Cc1cc(C)c[n+](C(C)C(=O)c2ccc(-c3ccccc3)cc2)c1 (stereo not given)	Nrf2 inh 15µM, ClpP mod inconclusive
Cn1c(C(=O)N2CCN(c3cccc(C(F)(F)F)c3)CC2)cc2sccc21	Nrf2 inh 26µM
Cc1ccc(S(=O)(=O)CC(=O)N2CCN(c3cccc(C(F)(F)F)c3)CC2)cc1	Nrf2 inh 23µM
